Measurements as given in patent US4364953A, “2-0- and 5-0-Substituted 1.4;3.6-dianhydrohexitol mononitrates and pharmaceutical composition” (Firma Willmar Schwabe, priority 1980, dated 1982).

Legend:
narcotised guinea pigs = assay: Blood pressure experiments on the narcotised guinea pig (i.v.); settings: for blood pressure previously: before administration (baseline); for blood pressure afterwards: after administration
mongrel cats = assay: Heart-circulation effectiveness in narcotised mongrel cats, intraduodenal administration; settings: 5 mg/kg intraduodenal, cat
[1] = tested on: isolated rat aorta preparations; assay: Spasmolytic effectiveness on isolated rat aorta preparations with noradrenaline- and potassium chloride-induced contractions
[2] = 0 min (baseline), average ± standard error, 6 animals

With `O=[N+]([O-])O[C@H]1CO[C@H]2[C@@H]1OC[C@H]2O[N+](=O)[O-]` the blood pressure previously (narcotised guinea pigs; 0.25 mg/kg i.v.) was 68.70 ± 2.30 mm.Hg, the blood pressure afterwards (narcotised guinea pigs; 1.00 mg/kg i.v.) was 46.30 ± 0.90 mm.Hg and the blood pressure previously (narcotised guinea pigs; 1.00 mg/kg i.v.) was 66.00 ± 3.50 mm.Hg. The blood pressure afterwards (narcotised guinea pigs; 2.50 mg/kg i.v.) was 37.70 ± 0.90 mm.Hg, the blood pressure previously (narcotised guinea pigs; 2.50 mg/kg i.v.) was 66.70 ± 1.70 mm.Hg and the blood pressure (mongrel cats; [2]) was 104.3 ± 7.7 mm.Hg. The “dp/dt (inotropism)” value (mongrel cats; [2]) was 8800 ± 831 mm.sec, the heart frequency (mongrel cats; [2]) was 174.3 ± 9.3 min⁻¹ and the blood pressure (mongrel cats; 10 min after admin.) was 90.4 ± 12.5 mm.Hg. For the same compound, the “dp/dt (inotropism)” value (mongrel cats; 10 min after admin.) was 8000 ± 1097 mm.sec, the heart frequency (mongrel cats; 10 min after admin.) was 179.3 ± 7.7 min⁻¹ and the “blood pressure Δ” value (mongrel cats; 10 min versus 0 min) was -13.9 mm.Hg. For the same compound, the “dp/dt Δ” value (mongrel cats; 10 min versus 0 min) was -800 mm.sec, the blood pressure (mongrel cats; 30 min after admin.) was 91.2 ± 10.0 mm.Hg and the “dp/dt (inotropism)” value (mongrel cats; 30 min after admin.) was 7766 ± 807 mm.sec. The heart frequency (mongrel cats; 30 min after admin.) was 177.7 ± 7.7 min⁻¹, the “blood pressure Δ” value (mongrel cats; 30 min versus 0 min) was -13.1 mm.Hg and the “dp/dt Δ” value (mongrel cats; 30 min versus 0 min) was -1133 mm.sec. The blood pressure (mongrel cats; 60 min after admin.) was 94.2 ± 9.2 mm.Hg, the “dp/dt (inotropism)” value (mongrel cats; 60 min after admin.) was 7633 ± 743 mm.sec and the heart frequency (mongrel cats; 60 min after admin.) was 175.0 ± 8.6 min⁻¹. For the same compound, the “blood pressure Δ” value (mongrel cats; 60 min versus 0 min) was -10.1 mm.Hg, the “dp/dt Δ” value (mongrel cats; 60 min versus 0 min) was -1167 mm.sec and the blood pressure (mongrel cats; 120 min after admin.) was 95.0 ± 9.6 mm.Hg. The “dp/dt (inotropism)” value (mongrel cats; 120 min after admin.) was 7050 ± 661 mm.sec, the heart frequency (mongrel cats; 120 min after admin.) was 166.7 ± 9.4 min⁻¹ and the “blood pressure Δ” value (mongrel cats; 120 min versus 0 min) was -9.3 mm.Hg. The “dp/dt Δ” value (mongrel cats; 120 min versus 0 min) was -1750 mm.sec, the IC50 ([1]; read-out: noradrenaline spasm, concentration for 50% inhibition of the spasm (ED50), noradrenaline-induced contraction) was 1300 nM and the IC50 ([1]; read-out: potassium chloride spasm, concentration for 50% inhibition of the spasm (ED50), potassium chloride-induced contraction) was 3100 nM.

Read-outs that look alike come from different tables or passages of the source.
